Where two headings read alike, the source gives them in different places.
What was measured:
[1] = target: cynomolgus monkey CEACAM5 on CHO-k1-cynoCEACAM5 clone 8 cells (cynomolgus monkey); experiment: flow cytometry, CHO-k1-cynoCEACAM5 clone 8
[2] = target: human CEACAM5 (carcinoembryonic antigen, CEA) on cells (human) (UniProt P06731); experiment: flow cytometry, CHO-k1-huCEACAM5 clone 13
[3] = target: human CEACAM5 (carcinoembryonic antigen, CEA) on cells (human) (UniProt P06731); experiment: flow cytometry, CHO-k1-huCEACAM5 clone 17; set-up: unit not given beside the values
[4] = target: human CEACAM5 (carcinoembryonic antigen, CEA) on cells (human) (UniProt P06731); experiment: flow cytometry, CHO-k1-huCEACAM5 clone 12
[5] = target: cynomolgus monkey CEACAM5 on CHO-k1-cynoCEACAM5 clone 8 cells (cynomolgus monkey); experiment: flow cytometry, CHO-k1-cynoCEACAM5 clone 8; set-up: unit not given beside the values
[6] = target: human CEACAM5 (carcinoembryonic antigen, CEA) on cells (human) (UniProt P06731); experiment: flow cytometry, CHO-k1-huCEACAM5 clone 12; set-up: unit not given beside the values
[7] = target: human CEACAM5 (carcinoembryonic antigen, CEA) on cells (human) (UniProt P06731); experiment: flow cytometry, CHO-k1-huCEACAM5 clone 12; set-up: unit not given beside the values; remark: listed apart in the source
[8] = target: human CEACAM5 (carcinoembryonic antigen, CEA) on cells (human) (UniProt P06731); experiment: flow cytometry, CHO-k1-huCEACAM5 clone 17
[9] = target: human CEACAM5 (carcinoembryonic antigen, CEA) on cells (human) (UniProt P06731); experiment: flow cytometry, CHO-k1-huCEACAM5 clone 11; set-up: unit not given beside the values
[10] = target: human CEACAM5 (carcinoembryonic antigen, CEA) on cells (human) (UniProt P06731); experiment: flow cytometry, CHO-k1-huCEACAM5 clone 11; set-up: unit not given beside the values; remark: listed apart in the source
[11] = target: human CEACAM5 (carcinoembryonic antigen, CEA) on cells (human) (UniProt P06731); experiment: flow cytometry, CHO-k1-huCEACAM5 clone 12; remark: listed apart in the source
[12] = target: cynomolgus monkey CEACAM5 on CHO-k1-cynoCEACAM5 clone 8 cells (cynomolgus monkey); experiment: cell-based or functional assay
[13] = target: human CEACAM5 (carcinoembryonic antigen, CEA) on cells (human) (UniProt P06731); experiment: cell-based or functional assay
[14] = target: human CEACAM5 (carcinoembryonic antigen, CEA) on cells (human) (UniProt P06731); experiment: flow cytometry, CHO-k1-huCEACAM5 clone 11
[15] = target: human CEACAM5 (carcinoembryonic antigen, CEA) on cells (human) (UniProt P06731); experiment: flow cytometry, CHO-k1-huCEACAM5 clone 11; remark: listed apart in the source
[16] = target: cynomolgus monkey CEACAM5 on CHO-k1-cynoCEACAM5 clone 8 cells (cynomolgus monkey); experiment: cell-based or functional assay; set-up: AUC of activation curve, Jurkat-hu4-1BB-NFκB-luc2 with CHO-k1-cyno CEACAM5 clone 8: unit not given beside the values
[17] = target: human CEACAM5 (carcinoembryonic antigen, CEA) on cells (human) (UniProt P06731); experiment: cell-based or functional assay; set-up: AUC of activation curve, Jurkat-hu4-1BB-NFκB-luc2 with CHO-k1-cyno CEACAM5 clone 8: unit not given beside the values
[18] = target: human CEACAM5 (carcinoembryonic antigen, CEA) on cells (human) (UniProt P06731); experiment: flow cytometry, CHO-k1-huCEACAM5 clone 13; set-up: unit not given beside the values
[19] = target: cynomolgus monkey CEACAM5 on CHO-k1-cynoCEACAM5 clone 8 cells (cynomolgus monkey); experiment: flow cytometry, CHO-k1-cynoCEACAM5 clone 8; set-up: unit not given beside the values; remark: listed apart in the source
[20] = target: cynomolgus monkey CEACAM5 on CHO-k1-cynoCEACAM5 clone 8 cells (cynomolgus monkey); experiment: flow cytometry, CHO-k1-cynoCEACAM5 clone 8; remark: listed apart in the source

Amino acid sequences for entries named in this document (tags omitted). Residues count along the entry.
UniProt P06731, 35-685 E398K limits assumed: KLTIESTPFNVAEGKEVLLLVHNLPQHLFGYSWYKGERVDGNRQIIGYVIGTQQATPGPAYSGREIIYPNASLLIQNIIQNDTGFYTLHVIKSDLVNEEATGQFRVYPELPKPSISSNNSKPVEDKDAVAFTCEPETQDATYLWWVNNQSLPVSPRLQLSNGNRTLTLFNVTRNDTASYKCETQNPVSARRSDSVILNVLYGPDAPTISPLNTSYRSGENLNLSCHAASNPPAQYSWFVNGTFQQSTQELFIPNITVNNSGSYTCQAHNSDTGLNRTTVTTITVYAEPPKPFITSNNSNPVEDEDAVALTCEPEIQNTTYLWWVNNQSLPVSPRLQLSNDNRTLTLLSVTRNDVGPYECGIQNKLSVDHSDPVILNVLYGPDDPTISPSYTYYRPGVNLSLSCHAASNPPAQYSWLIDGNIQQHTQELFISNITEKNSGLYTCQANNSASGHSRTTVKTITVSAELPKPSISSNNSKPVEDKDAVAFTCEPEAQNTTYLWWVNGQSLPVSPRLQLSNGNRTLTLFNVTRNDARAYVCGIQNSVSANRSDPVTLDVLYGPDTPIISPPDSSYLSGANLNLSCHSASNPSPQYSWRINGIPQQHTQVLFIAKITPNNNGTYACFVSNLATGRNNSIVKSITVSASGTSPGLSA

Q: What does the source list for CEA (MEDI-565)-4-1BBL (Fc fusion)?
A: EC50 [1]: 8.82 nM; EC50 [2]: 6.39 nM; AUC [3]: 15300; EC50 [4]: 10.9 nM; AUC [5]: 3900; AUC [6]: 8310; AUC [7]: 49700; EC50 [8]: 1.84 nM; AUC [9]: 2850; AUC [10]: 14300; EC50 [11]: 2.18 nM; EC50, NFκB-luciferase in Jurkat-hu4-1BB-NFκB-luc2 with CHO-k1-cyno CEACAM5 clone 8 [12]: 0.2 nM; EC50, NFκB-luciferase in Jurkat-hu4-1BB-NFκB-luc2 with CHO-k1-human CEACAM5 clone 11 [13]: 0.11 nM; EC50, NFκB-luciferase in Jurkat-hu4-1BB-NFκB-luc2 with CHO-k1-human CEACAM5 clone 12 [13]: 0.06 nM; EC50 [14]: 6.68 nM; EC50 [15]: 1.75 nM; AUC of activation curve, Jurkat-hu4-1BB-NFκB-luc2 with CHO-k1-cyno CEACAM5 clone 8 [16]: 76300; AUC of activation curve, Jurkat-hu4-1BB-NFκB-luc2 with CHO-k1-human CEACAM5 clone 11 [17]: 155000; AUC of activation curve, Jurkat-hu4-1BB-NFκB-luc2 with CHO-k1-human CEACAM5 clone 12 [17]: 155000; AUC [18]: 82100; AUC [19]: 20600; EC50 [20]: 9.43 nM
